Patent US20240000957A1 (published 2024)

The chains behind the UniProt entries cited, without tags or fusion partners. Residues count along the entry.
UniProt P29317, 24-537: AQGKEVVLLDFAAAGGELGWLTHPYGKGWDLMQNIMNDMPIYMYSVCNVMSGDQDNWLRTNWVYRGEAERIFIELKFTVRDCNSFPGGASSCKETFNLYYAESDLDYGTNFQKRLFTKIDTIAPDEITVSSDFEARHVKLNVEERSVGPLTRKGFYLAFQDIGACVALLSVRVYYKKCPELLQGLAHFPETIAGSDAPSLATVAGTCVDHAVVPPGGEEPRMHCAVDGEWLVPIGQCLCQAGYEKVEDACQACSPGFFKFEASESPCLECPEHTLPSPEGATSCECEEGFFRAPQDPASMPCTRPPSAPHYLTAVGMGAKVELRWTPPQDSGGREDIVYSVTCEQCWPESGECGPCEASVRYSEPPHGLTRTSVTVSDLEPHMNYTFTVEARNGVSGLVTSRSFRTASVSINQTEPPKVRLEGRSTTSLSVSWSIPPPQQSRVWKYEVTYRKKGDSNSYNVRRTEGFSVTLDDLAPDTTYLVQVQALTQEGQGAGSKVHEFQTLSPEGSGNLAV

Target: T1, Human EphA2 (Ecto), C-terminal polyHis (Human, UniProt P29317 24-537)
T1 construct: extracellular domain; R&D systems 3035-A2 or in-house
Experiment: FP competition vs Reference Compound C

B1: Compound 83 (peptide)
peptide: ACPLVNPLCLAPGWTCSRS
modifications: TATA scaffold on the 3 Cys
Ki: 7.05 nM

B2: Compound 80 (peptide)
peptide: RHDCPLVNPLCLLPGWTCA
modifications: TATA scaffold on the 3 Cys
Ki: 7.11 nM
